In PubChem BioAssay AID1963576 (National Center for Advancing Translational Sciences (NCATS), 2024):
Only a part is listed here, and it is no random draw. Some of these compounds have results that are not shown, active ones among them. Records with an inconclusive call do not appear. Active and inactive are the calls of the source. Calls come from the whole dose curve; as a rule, active = well fitted inhibition curve with a large enough effect; inconclusive = small, poorly fitted or top-dose-only effect; inactive = no such curve, though single readings can be large or run the other way.

Assay: Primary qHTS assay for Inhibitors of ovarian cancer metastasis using an organotypic tumor microenvironment (TME) model. Note: nearly all actives have a fitted effect of over 65% in size.
Conditions: SKOV3ip1-GFP adhesion/invasion on 3D omental model, fluorescence; activity change, negative = inhibition: at 45.8 µM (top of the series)
Description: PI: Ernst Lengyel MD., Ph.D. Department of Obstetrics and Gynecology, Section of Gynecologic Oncology University of Chicago Medicine, Chicago, Illinois. The tumor microenvironment (TME) is a key determinant of metastatic efficiency. We performed a quantitative high-throughput screen (qHTS) of diverse medicinal chemistry tractable scaffolds (44,420 compounds) and pharmacologically active small molecules (386 compounds) using a layered organotypic, robust assay representing the ovarian cancer metastatic TME. This 3D model contains primary human mesothelial cells, fibroblasts, and extracellular matrix, to which fluorescently labeled ovarian cancer cells are added. Initially, 100 compounds inhibiting ovarian cancer adhesion/invasion to the 3D model in a dose-dependent manner were identified. Of those, eight compounds were confirmed active in five high-grade serous ovarian cancer cell lines and were further validated in secondary in vitro and in vivo biological assays. […] Specifically, NCGC00117362 and PP-121 inhibited ovarian cancer adhesion, invasion, and proliferation, whereas milciclib inhibited ovarian cancer invasion and proliferation. […] To evaluate the clinical potential of NCGC00117362, structure - activity relationship studies were performed. […] The three compounds identified have promise as therapeutics for prevention and treatment of ovarian cancer metastasis.
PROTOCOL TABLE (as described by Inglese J, Shamu CE and Guy RK. 2007) SEQUENCE No. (e.g., 1, 2, 3, etc.); […] (e.g., Cells, Incubation, Reagent, etc.); VALUE; DESCRIPTION. 1; Cells; 4 uL; primary human omental fibroblast, black, clear bottom, low base, 1536-well Aurora assay plate. 2; Incubation; 48 hr; 37C. 3; Cells; 3 uL; 1,200 SKOV3ip1-GFP cells. 4; Compounds; 23nL; acoustic dispenser. 5; Incubation; 2 hr; room temperature. 6; Incubation; 16 hr; 37C. 7; Wash; 5 uL; 1x PBS. 8; Fixing; 5 uL; 4% paraformaldehyde (PFA). 9; Incubation; 15 min; room temperature 10; Wash, 5 uL; 1x PBS. 11; Detection; Fluorescence, excitation filter 488 nm, emission filter 509 nm. NOTES (numbers refer to Sequence numbers above) 1. For the 1,536-well format, 40 primary human omental fibroblasts and 400 mesothelial cells were seeded with 0.02 µg fibronectin and 0.02 µg collagen type I in 4 µL of growth media (2.3 mm2; Supplementary Fig. S1A). 2. Assay plates were incubated for 48 hours at 37 C. 3. After incubation, 1,200 SKOV3ip1-GFP were seeded in 3 µL of serum-free media (growth media minus FBS) on top of primary human omental cells. 4. Compounds or controls were added to each well immediately after the addition of the cancer cells. Compounds were screened in four doses (0.36-46 µmol/L), and the plates contained the positive control (Tomatine) in eight doses (0.035-75 µmol/L) and DMSO (equal volume controls) 5 - 6. The plates were incubated at room temperature for 2 hours and then at 37 degrees C for 16 hours. 7 - 10. Following incubation, the media were aspirated and each well washed with PBS (5 µL) and then fixed with 4% paraformaldehyde (PFA; 5 µL). After 15 minutes, the PFA solution was aspirated, PBS (5 µL) was added. 11. The number of GFP-labeled cells analyzed using a fluorescent cytometer TTP LabTech Acumen eX3 using 488 nm excitation filter and 509 nm emission filter. Data was normalized to the DMSO treated for negative and Tomatine treated wells for positive control. REFERENCES: Inglese J, Shamu CE and Guy RK, Reporting data from high throughput screening of small molecule libraries, Nature Chemical Biology, 2007, 3(8): 438-441. doi.org/10.1038/nchembio0807-438. Yasgar A, Shinn P, Jadhav A, Auld DS, Michael S, Zheng W, Austin CP, Inglese J and Simeonov A, Compound Management for Quantitative High-Throughput Screening. J. Assoc. Lab. Auto., 2008, 13: 79-89. doi: 10.1016/j.jala.2007.12.004.
In the case of `CCCCOc1ccccc1C(=O)NCC1(N(C)C)CCCCC1`, the activity change, negative = inhibition is reported as inactive: -8.88%.
For `CN(C)C1(CNC(=O)c2ccccc2[N+](=O)[O-])CCCCC1`, the activity change, negative = inhibition was “inactive”.
For `CCOc1cccc(C(=O)NCC2(N(C)C)CCCCC2)c1`, the activity change, negative = inhibition was “inactive”.
In the case of `CN(C)C1(CNC(=O)c2ccccc2F)CCCCC1`, the activity change, negative = inhibition is reported as inactive: 8.3%.
In the case of `CN(C)C1(CNC(=O)c2cccc(Cl)c2)CCCCC1`, the activity change, negative = inhibition is reported as inactive: 5.93%.
For `CC(C)COc1ccc(C(=O)NCC2(N(C)C)CCCCC2)cc1`, the activity change, negative = inhibition was inactive: 1.19%.
With `COc1cccc(C(=O)NCC2(N3CCOCC3)CCCCC2)c1` the activity change, negative = inhibition was “inactive”.
In the case of `CC(C)Oc1ccc(C(=O)NCC2(N(C)C)CCCCC2)cc1`, the activity change, negative = inhibition is reported as inactive: 11.1%.
For `COc1cc(C(=O)NCC2(N(C)C)CCCCC2)cc(OC)c1OC`, the activity change, negative = inhibition was inactive: -30.1%.
With `Cc1cccc(C(=O)NCC2(N(C)C)CCCCC2)c1` the activity change, negative = inhibition was inactive: 3.32%.
For `COc1ccc(C(=O)NCC2(N(C)C)CCCCC2)cc1Cl`, the activity change, negative = inhibition was inactive: -0.792%.
